Source: patent US20210395312A1, “QUANTUM CONFINED PEPTIDE ASSEMBLIES AND USES THEREOF” (Ramot at Tel-Aviv University Ltd., priority 2019, published 2021)

Legend:
Format in all cases: physicochemical
[1] = Fluorescence characterization (excitation/emission) of self-assemblies
Protocol: UV-Visible fluorescence characterization: 600 μL sample solution was pipetted into a 1.0 cm path-length quartz cuvette, and the spectrum was collected using a FluoroMax-4 Spectrofluorometer (Horiba Jobin Yvon, Kyoto, Japan) at ambient temperature. For molecular fluorescence of some experiments, the emission wavelength was set at 350 nm with a slit of 3 nm, and the excitation wavelength was set at 200-330 nm with a slit of 3 nm. For self-assembly fluorescence, the excitation wavelength was set at 370 nm with a slit of 3 nm, and the emission wavelength was set at 380-700 nm with a slit of 3 nm. For excitation-dependent maximal emission evolution experiment, the excitation wavelengths were set at 300-450 nm with a slit of 3 nm, and the emission wavelengths were set at 380-600 nm with a slit of 3 nm. […] Emission and excitation wavelengths, slit dimensions and background solutions were adjusted per the measured sample and are as indicated below. […]
Fluorescence spectroscopy and quantum yield (QY) measurement: 600 μL sample solution was pipetted into a 1.0 cm path-length quartz cuvette, and the spectrum was collected using a FluoroMax-4 Spectrofluorometer (Horiba Jobin Yvon, Kyoto, Japan) at ambient temperature. […] Absolute fluorescence QY measurements were performed using Quanta-Phi integrating sphere connected to Fluoromex-4.

[2] = Morphology and size of self-assemblies (AFM, DLS, TEM); conditions: self-assemblies in MeOH
Protocol: Dynamic light scattering (DLS): 850 μL of the sample solution was introduced into a DTS1070 folded capillary cell (Malvern, Worcestershire, U.K.), and the size was measured using a Zetasizer Nano ZS analyzer (Malvern Instruments, Malvern, UK) at 25.0° C. and a backscatter detector (173°). Three measurements were performed and averaged for accuracy.
Atomic force microscopy (AFM): 4 μL of sample solution was dropped onto a freshly cleaved mica surface and let it dry. The mica was then rinsed with water and purged dried gently with nitrogen. A topographic image was recorded under a NanoWizard 3 BioScience AFM (JPK, Berlin, Germany) in the tapping mode at ambient temperature, with 512×512 pixel resolution and a scanning speed of 1.0 Hz.
Transmission electron microscopy (TEM): A carbon-coated copper grid was placed on a 10 μL cyclo-dipeptide droplet for 1 minute and then blotted. Next, the washed grid was placed on a 10 μL droplet containing 4% (w/v) uranyl acetate solution for 1 min and then blotted. Samples were examined using Tecnai G2 Spirit TEM (FEI) at 80 kV.
Atomic force microscopy (AFM): 5 μL of sample solution was dropped onto a freshly cleaved mica surface and dried by N2 purge (99.99%). […] A topographic image was recorded under a Dimension icon AFM (Bruker) in the tapping mode at ambient temperature, with a 512×512-pixel resolution and a scanning speed of 1.0 Hz. […]

[3] = Quantum yield (QY) measurement; conditions: MeOH
Protocol: Quantum yield (QY) measurement: 5 mL sample solution was pipetted into a 1.0 cm path-length quartz cuvette with a tube (Hellma, Müllheim, Germany), and the absolute quantum yield was measured on an absolute PL quantum yield spectrometer C11347 (Hamamatsu Photonics, Shizuoka, Japan) at ambient temperature. The relevant blanks, namely anhydrous MeOH, MeOH solutions of ZnCl2 (CuCl2), or DMSO solution of ZnCl2, were used as background and subtracted. At least five measurements were performed and averaged for accuracy.
Fluorescence spectroscopy and quantum yield (QY) measurement: 600 μL sample solution was pipetted into a 1.0 cm path-length quartz cuvette, and the spectrum was collected using a FluoroMax-4 Spectrofluorometer (Horiba Jobin Yvon, Kyoto, Japan) at ambient temperature. The excitation and emission wavelengths were set at 300-500 nm and 400-650 nm, respectively, with a slit of 2 nm. Absolute fluorescence QY measurements were performed using Quanta-Phi integrating sphere connected to Fluoromex-4.

[4] = excitation set at 350 nm if maximal excitation less than 350 nm

Substance | QY [3, 4] | other results
cyclo-diphenylalanine [cyclo-FF] |  | emission ([1]; DMSO, Ex 450 nm (cyclo-FF), Ex 480 nm (cyclo-YY)): 530 nm; Emission (λEm) ([1]; maximal emission, MeOH): no detectable emissions; Structures [2]: nanofibers
histidine-tyrosine cyclic dipeptide [cyclo-HY] | 3% | QY ([3]; in the presence of Zn(II)): 9%
tyrosine-tryptophan cyclic dipeptide [cyclo-WY] | 3% | 

Continued, in another order:

QY [3, 4] | Substance | other results
2% | phenylalanine-histidine cyclic dipeptide [cyclo-HF] | 
3% and 2% | tryptophan-histidine cyclic dipeptide [cyclo-WH] | 
2% | tryptophan-tryptophan cyclic dipeptide [cyclo-WW] | 

Values joined by “and” are separate entries in the source; they are usually repeats but may differ in a detail not shown here. Equal values may be shown once.
